OPERA 2.9 data: fraction unbound values

Values as listed in the OPERA 2.9 repository of K. Mansouri.

fu is the fraction unbound in human plasma, from 0 to 1.
Cells with "n/a" have no entry in this list.

structure (SMILES)	name	fraction unbound
COCC(=O)Nc1c(I)c(C(=O)NCC(O)CO)c(I)c(C(=O)N(C)CC(O)CO)c1I (stereo unspecified)	Iopromide	0.99
CSc1ccc(C(=O)c2[nH]c(=O)[nH]c2C)cc1	Enoximone	0.275
CC(C)OC(=O)OCOP(=O)(CO[C@H](C)Cn1cnc2c(N)ncnc21)OCOC(=O)OC(C)C	Tenofovir disoproxil	0.93
C=CCOc1ccccc1OCC(O)CNC(C)C (stereo unspecified)	Oxprenolol	0.265
O=C(O)CCCC[C@@H]1SC[C@@H]2NC(=O)N[C@@H]21	Biotin	0.8
CC(C)[C@H](N)C(=O)OCCOCn1cnc2c(=O)[nH]c(N)nc21	Valacyclovir	0.82
Cn1nnc2c(C(N)=O)ncn2c1=O	Temozolomide	0.85
Cl.N=C1C=CC(=C(c2ccc(N)cc2)c2ccc(N)cc2)C=C1	C.i. basic red 9 monohydrochloride	0.235
CCCCCCc1ccc(N)cc1	n/a	0.00695
CO[C@H]1C=CO[C@@]2(C)Oc3c(C)c(O)c4c(O)c(c(/C=N/N5CCN(C6CCCC6)CC5)c(O)c4c3C2=O)NC(=O)C(C)=CC=C[C@H](C)[C@H](O)[C@@H](C)[C@@H](O)[C@@H](C)[C@H](OC(C)=O)[C@@H]1C	Rifapentine	0.05367
CN(C)C(=O)Nc1ccccc1	Fenuron	0.564
CC1(C)S[C@@H]2[C@H](/N=C/N3CCCCCC3)C(=O)N2[C@H]1C(=O)O	Amdinocillin	0.86
CC(=O)[C@]1(O)Cc2c(O)c3c(c(O)c2[C@@H](O[C@H]2C[C@H](N)[C@H](O)[C@H](C)O2)C1)C(=O)c1ccccc1C3=O	Idarubicin	0.064
CN1CCN(CCCN2c3ccccc3Sc3ccc(C(F)(F)F)cc32)CC1	Triphthasine	0.007794
COCCCOc1cc(C[C@@H](C[C@H](N)[C@@H](O)C[C@H](C(=O)NCC(C)(C)C(N)=O)C(C)C)C(C)C)ccc1OC	Aliskiren	0.505
Cc1cc(C2(c3cc(C)c(O)cc3C)OS(=O)(=O)c3ccccc32)c(C)cc1O	P-xylenol blue	0.0261
COc1nc(C)nc(NC(=O)NS(=O)(=O)c2ccccc2OCCCl)n1	Triasulfuron	0.02251
O=C(O)Cn1c(=O)n(Cc2ccc(Br)cc2F)c(=O)c2ccc(Cl)cc21	Zenarestat	0.0091
NC(=O)c1cc[n+](CC2=C(C(=O)[O-])N3C(=O)[C@@H](NC(=O)C(c4ccccc4)S(=O)(=O)O)[C@H]3SC2)cc1 (some centres not stated)	Cefsulodin	0.77
CCCCCC	n/a	0.1931
N=C(N)N1CCc2ccccc2C1	Debrisoquin	0.15
CN(C)c1nc(N(C)C)nc(N(C)C)n1	Hexamethylmelamine	0.06
CCCCOc1ccc(N)cc1	4-butyloxyaniline	0.165
CC[C@H]1OC(=O)[C@H](C)[C@@H](O[C@H]2C[C@@](C)(OC)[C@@H](O)[C@H](C)O2)[C@H](C)[C@@H](O[C@@H]2O[C@H](C)C[C@H](N(C)C)[C@H]2O)[C@](C)(O)C[C@@H](C)[C@@H]2N[C@@H](COCCOC)O[C@@H]([C@H]2C)[C@]1(C)O	Dirithromycin	0.775
CCCc1c2oc(C(=O)O)cc(=O)c2cc2c(=O)cc(C(=O)O)n(CC)c12	Nedocromil	0.2
O=C(OCC(O)CO)c1ccccc1Nc1ccnc2c(C(F)(F)F)cccc12 (stereo unspecified)	Floctafenine	0.15
C[C@]12CC[C@H]3C(=CCc4cc(O)ccc43)[C@@H]1CCC2=O	Equilin	0.0583
CC(=O)N[C@@H](CS)C(=O)O	N-Acetyl-L-cysteine	0.17
COc1cc2c(cc1OC)[C@@H](Cc1cc(OC)c(OC)c(OC)c1)[N+](C)(CCCOC(=O)CC/C=C/CCC(=O)OCCC[N+]1(C)CCc3cc(OC)c(OC)cc3[C@H]1Cc1cc(OC)c(OC)c(OC)c1)CC2 (stereo partly specified)	Mivacurium	0.7
CN(C)c1ccc(C(=N)c2ccc(N(C)C)cc2)cc1.Cl	Auramine hydrochloride	0.107
O=C1c2ccccc2C(=O)C1c1ccccc1	Phenindione	0.03
CC(C)(Oc1ccc(C2CC2(Cl)Cl)cc1)C(=O)O (stereo unspecified)	Ciprofibrate	0.05
CN/C(/NCc1ccccc1)=NC	n/a	0.9
O=C(CCCN1CC=C(n2c(=O)[nH]c3ccccc32)CC1)c1ccc(F)cc1	Droperidol	0.05
CC(CN1c2ccccc2Sc2ccccc21)N(C)C (stereo unspecified)	Promethazine	0.105
CC(C(=O)O)c1cccc(Oc2ccccc2)c1 (stereo unspecified)	Fenoprofen	0.0065
Cc1c(N(C)C)c(=O)n(-c2ccccc2)n1C	4-Dimethylaminoantipyrine	0.925
Nc1nc2nc[nH]c2c(=S)[nH]1	6-thioguanine	0.804
Cc1ccc(cc1)/C(=CCN1CCCC1)/c1cccc[n]1	n/a	0.254
OCc1cc(C(O)CNCCCCCCOCCCCc2ccccc2)ccc1O (stereo unspecified)	Salmeterol	0.05142
CS(=O)(=O)c1ccc([C@@H](C[C@H]2CCC(=O)C2)C(=O)Nc2cnccn2)cc1Cl	Piragliatin	0.48
CN1CCN2c3ccccc3Cc3ccccc3C2C1 (stereo unspecified)	Mianserin	0.105
CN(C)C(=O)CCSC(SCCC(=O)O)c1cccc(/C=C/c2ccc3ccc(Cl)cc3n2)c1 (stereo partly drawn)	MK-571	0.0034
COc1c(Cl)ccc(Cl)c1C(=O)O	Dicamba	0.1488
CN(CC1(C)CCCO1)S(=O)(=O)c1ccc(Cl)c(S(N)(=O)=O)c1 (stereo unspecified)	Mefruside	0.35
CN1CCOC(c2ccccc2)c2ccccc2C1 (stereo unspecified)	Nefopam	0.27
CCNc1cccc(C)c1	N-Ethyl-3-methylaniline	0.1414
Nc1nc(/C(=C/CC(=O)O)C(=O)N[C@@H]2C(=O)N3C(C(=O)O)=CCS[C@H]23)cs1	Ceftibuten	0.35
Nc1ccc(S(=O)(=O)Nc2ccnn2-c2ccccc2)cc1	Sulfaphenazole	0.01718
C/C(=C\c1csc(C)n1)[C@@H]1C[C@@H]2O[C@]2(C)CCC[C@H](C)[C@H](O)[C@@H](C)C(=O)C(C)(C)[C@@H](O)CC(=O)N1	Ixabepilone	0.28
COC(=O)c1ccccc1O	Methyl salicylate	0.107
CCC[C@@H]1C[C@@H](C(=O)N[C@@H]([C@H]2O[C@H](SC)[C@H](O)[C@@H](O)[C@H]2O)[C@@H](C)O)N(C)C1	Lincomycin	0.24
C[C@]12CCC(=O)C=C1[C@@H]1C[C@@H]1[C@H]1[C@@H]3[C@@H]4C[C@@H]4[C@@]4(CCC(=O)O4)[C@@]3(C)CC[C@@H]12	Drospirenone	0.03
NCC[C@H](O)C(=O)N[C@@H]1C[C@H](N)[C@@H](O[C@H]2O[C@H](CN)[C@@H](O)[C@H](O)[C@H]2O)[C@H](O)[C@H]1O[C@H]1O[C@H](CO)[C@@H](O)[C@H](N)[C@H]1O	Amikacin	0.895
c1ccc(CNc2[nH]cnc3ncnc2-3)cc1	N-benzyladenine	0.138

Extract of 4 entries:

structure (SMILES)	name	fraction unbound
CCCCCC	n/a	0.1931
CC(C(=O)O)c1cccc(Oc2ccccc2)c1 (stereo unspecified)	Fenoprofen	0.0065
O=C(O)Cn1c(=O)n(Cc2ccc(Br)cc2F)c(=O)c2ccc(Cl)cc21	Zenarestat	0.0091
COc1nc(C)nc(NC(=O)NS(=O)(=O)c2ccccc2OCCCl)n1	Triasulfuron	0.02251

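OPERA's authors assembled the values from existing databases and did not measure them anew. The files give a single number for a compound and property, which may rest on several reports. How each value was measured is not recorded, so precision varies. Where a salt, mixture or single isomer is drawn, the source does not say that exactly this form was tested. Unmarked limits or estimates from the upstream databases cannot be ruled out.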